# In publication PMC11228022 (Signal Transduction and Targeted Therapy, 2024):
# Test: Pharmacokinetic study, stomach and plasma concentrations
# Format: in vivo, C57BL/6 mice
# Conditions: both sexes, C57BL/6, mouse, plasma; single oral 30 mg/kg; read-out: maximum concentration (Cmax) in plasma
structure (smiles),measurement,value
C/C=C/COc1cc2c(cc1OC)-c1c(C/C=C/C)c3ccc(OC)c(OC)c3c[n+]1CC2 [Compound 8],Cmax,< 100 ng/mL
